Assay results reported in patent US6992169B2, “Carrier based drug delivery system” (Cyclacel Limited, priority 1998, dated 2006).
Read-outs that look alike come from different tables or passages of the source.

Experiments:
[1] = Serum stability of peptide vectors
Method: Test compounds were dissolved in cell-conditioned tissue culture medium (10% FCS in DMEM) at concentrations varying from 1 to 40 μM. The solutions were incubated at 37° C. and samples were withdrawn at intervals. After filtration, aliquots were analysed by RP-HPLC (using a photodiode array UV detector). Intact vectors were identified by reference to chromatograms obtained with authentic peptides and by DE MALDI-TOF analysis of appropriate peak fractions. […] The latter was chosen preferentially in order to replicate the conditions used for cytotoxicity assays on cell cultures.

[2] = Carcinoma cell line panel, SRB-assay
Method: (§1) After incubation for 96 h, cytotoxicity was assessed using a standard SRB-assay.

[3] = Carcinoma cell line panel, SRB-assay; remark: listed apart in the source
Method: as §1

[4] = Carcinoma cell line panel, SRB-assay; remark: listed apart in the source
Method: as §1

[5] = Carcinoma cell line panel, SRB-assay; remark: listed apart in the source
Method: as §1

[6] = Carcinoma cell line panel, SRB-assay; remark: listed apart in the source
Method: as §1

[7] = Carcinoma cell line panel, SRB-assay; remark: listed apart in the source
Method: as §1

[8] = Carcinoma cell line panel, SRB-assay; remark: listed apart in the source
Method: as §1

[9] = Carcinoma cell line panel, SRB-assay; remark: listed apart in the source
Method: as §1

[10] = Carcinoma cell line panel, SRB-assay; remark: listed apart in the source
Method: as §1

[11] = Carcinoma cell line panel, SRB-assay; remark: listed apart in the source
Method: as §1

[12] = Carcinoma cell line panel, SRB-assay; remark: listed apart in the source
Method: as §1

[13] = Carcinoma cell line panel, SRB-assay; remark: listed apart in the source
Method: as §1

[14] = Carcinoma cell line panel, SRB-assay; remark: listed apart in the source
Method: as §1

[15] = Carcinoma cell line panel, SRB-assay; remark: listed apart in the source
Method: as §1

Structure (SMILES) | Main metabolism product ([1]; 10% FCS in DMEM, 37° C., in all cases (also human or murine serum)) | half-life ([1]; bovine, serum) | IC50 [2] | IC50 [3] | IC50 [4] | IC50 [5] | IC50 [6] | IC50 [7] | IC50 [8] | IC50 [9] | IC50 [10] | IC50 [11] | IC50 [12] | IC50 [13] | IC50 [14] | IC50 [15]
CC[C@H](C)[C@H](NC(=O)[C@H](CCCCN)NC(=O)[C@@H](NC(=O)[C@H](CCC(N)=O)NC(=O)[C@@H](N)CCCNC(=N)N)[C@@H](C)CC)C(=O)N[C@@H](Cc1c[nH]c2ccccc12)C(=O)N[C@@H](Cc1ccccc1)C(=O)N[C@@H](CCC(N)=O)C(=O)N[C@@H](CC(N)=O)C(=O)N[C@@H](CCCNC(=N)N)C(=O)N[C@@H](CCCNC(=N)N)C(=O)N[C@@H](CCSC)C(=O)N[C@@H](CCCCN)C(=O)N[C@@H](Cc1c[nH]c2ccccc12)C(=O)N[C@@H](CCCCN)C(=O)N[C@@H](CCCCN)C(=O)O [H-Arg-Gln-Ile-Lys-Ile-Trp-Phe-Gln-Asn-Arg-Arg-Met-Lys-Trp-Lys-Lys-OH] | 15mer resulting from C-terminal truncation of a Lys residue | 10 min | – | – | – | – | – | – | – | – | – | – | – | – | – | –
CC[C@H](C)[C@H](NC(=O)[C@H](CCCCN)NC(=O)[C@@H](NC(=O)[C@H](CCC(N)=O)NC(=O)[C@@H](N)CCCNC(=N)N)[C@@H](C)CC)C(=O)N[C@@H](Cc1c[nH]c2ccccc12)C(=O)N[C@@H](Cc1ccccc1)C(=O)N[C@@H](CCC(N)=O)C(=O)N[C@@H](CC(N)=O)C(=O)N[C@@H](CCCNC(=N)N)C(=O)N[C@@H](CCCNC(=N)N)C(=O)N[C@@H](CCSC)C(=O)N[C@@H](CCCCN)C(=O)N[C@@H](Cc1c[nH]c2ccccc12)C(=O)N[C@@H](CCCCN)C(=O)N[C@@H](CCCCN)C(=O)O [Vector] | – | – | > 25 µM | > 25 µM | > 25 µM | > 25 µM | > 25 µM | > 25 µM | > 25 µM | > 25 µM | > 25 µM | > 25 µM | > 25 µM | > 25 µM | > 25 µM | > 25 µM
